Measurements taken from BindingDB's records for US10155733.

Chains of the proteins cited; added tags and fusions are not shown.
UniProt P20309, whole entry, looked up: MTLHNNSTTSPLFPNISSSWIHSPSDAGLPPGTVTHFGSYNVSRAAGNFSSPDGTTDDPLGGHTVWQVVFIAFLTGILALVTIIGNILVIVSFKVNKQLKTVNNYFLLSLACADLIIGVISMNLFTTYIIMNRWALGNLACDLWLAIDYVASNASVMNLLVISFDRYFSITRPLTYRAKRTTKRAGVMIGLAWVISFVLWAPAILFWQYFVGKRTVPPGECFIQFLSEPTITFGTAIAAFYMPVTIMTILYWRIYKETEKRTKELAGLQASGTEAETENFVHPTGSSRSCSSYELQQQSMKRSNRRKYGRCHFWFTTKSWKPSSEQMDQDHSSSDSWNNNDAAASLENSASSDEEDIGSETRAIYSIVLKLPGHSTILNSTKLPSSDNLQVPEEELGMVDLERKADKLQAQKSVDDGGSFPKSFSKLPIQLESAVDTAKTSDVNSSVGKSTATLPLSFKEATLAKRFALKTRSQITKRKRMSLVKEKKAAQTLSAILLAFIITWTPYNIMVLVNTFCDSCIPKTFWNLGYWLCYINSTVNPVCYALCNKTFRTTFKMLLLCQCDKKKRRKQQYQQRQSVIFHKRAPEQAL

Molecular target: Muscarinic acetylcholine receptor M3 (Homo sapiens, UniProt P20309)
Test: Muscarinic 3 Receptor Binding Assay

CN1CCCN(C(=O)C(O)(c2ccccc2)C2CCCCC2)CC1 (stereo unspecified)
pIC50: 7.22

pIC50: −log10 of the molar value.
